## Measured affinities in a library of Ab-91 heavy chain variants

From the AlphaSeq antibody data of Engelhart et al. 2022 (doi:10.1038/s41597-022-01779-4), copy in the FLAb collection.

The target is the same throughout: PDVDLGDISGINAS, from the HR2 region of SARS-CoV-2 spike.

Parent: Ab-91, a human scFv built as VL, a (GGGGS)3 linker, VH. Only the CDRs of the heavy chain vary.
VL: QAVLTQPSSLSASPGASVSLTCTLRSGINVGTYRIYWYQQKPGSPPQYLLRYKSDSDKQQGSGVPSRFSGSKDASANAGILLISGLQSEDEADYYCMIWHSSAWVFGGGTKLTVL
VH: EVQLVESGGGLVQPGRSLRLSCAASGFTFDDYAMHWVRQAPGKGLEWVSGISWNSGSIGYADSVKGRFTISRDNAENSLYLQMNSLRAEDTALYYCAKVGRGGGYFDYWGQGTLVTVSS

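The parent was found by panning a naive human phage display library on the peptide. AAYL51 was designed without a model: most single CDR substitutions and a random sample of double and triple ones. AlphaSeq pools MATa yeast showing the antibodies with MATalpha yeast showing the peptide. Pairs that bind mate more often; barcode pairs of the diploids are counted by sequencing. Scores were corrected for input abundance and mapped to Kd with protein pairs of known affinity run in the same pool. The assay was run in three technical replicates.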

Variants are written as CDR1, CDR2 and CDR3 of the heavy chain (limits as in the source). Parent: GFTFDDYAMH, GISWNSGSIGYADSVK, VGRGGGYFDY.
Every variant below is changed at Y60 of the VH (sequential numbering).
The Kd shown is the geometric mean over detected replicates; a lower Kd is a better binder.
"no signal" marks a missing value. The strain was present, yet no cells mated with the target were sequenced in any replicate, which points to weak or no binding.
The list is sorted by this average, lowest first, undetected variants last.

* GFTFDDYGMH, GISMNSGSIGMADSVK, VGRGGGYFDY: 7.2 nM (3 of 3 replicates)
* GFTFDDYAMH, GISWNSGSIGEADSVK, VGRGGGYFDY: 740 nM (3 of 3 replicates)
* GTTFDDYAMH, GISWNSGSIGHADSVK, VGRGGGYVDY: 810 nM (1 of 3 replicates)
* GFTFDDYAMH, GISWNSGLIGIADSVK, VGRGGGYFDS: 2.4 µM (2 of 3 replicates)
* GNTFDDYAMH, GISWNSGHIGPADSVK, VGRGGGYFDY: 4.8 µM (1 of 3 replicates)
* GFTFDDVAMH, GISWNSGSSGMADSVK, VGRGGGYFDY: 5.4 µM (3 of 3 replicates)
* DFTFDDYAMH, GISWNSGSIGLADSVK, VGRGGGFFDY: 25 µM (3 of 3 replicates)
* GFTFDDYAMH, GISWNSGSIGNADSVK, VGRGGGYFDN: 39 µM (3 of 3 replicates)
* GFTFDDYAMH, GISWNSGSIGQADSVK, VGRGGGYFDY: 42 µM (1 of 3 replicates)
* GFTFDDYDMH, GISWNSGSIGDEDSVK, VGRGGGYFDY: 47 µM (2 of 3 replicates)
* GFTFDDYAMH, GISWNSGSIGRADSVK, VGRGGGYFDY: 52 µM (1 of 3 replicates)
* GFTFDDYAMH, GISWNSGSIGGAFSVK, VGRGGPYFDY: 62 µM (1 of 3 replicates)
* GFTFDDYMMH, GISWNSGSIGSADSTK, VGRGGGYFDY: 100 µM (2 of 3 replicates)
* GFTADDYAMH, GISWNSGSIGTADSVK, VGRGGGYFDT: 180 µM (3 of 3 replicates)
* GFTFDDYAMH, GISWSLGSIGWADSVK, VGRGGGYFDY: 220 µM (2 of 3 replicates)
* GFTFDDYAMH, GISWNSGSIGMADSVK, VGGGGGYFQY: 240 µM (3 of 3 replicates)
* GFTKDDYAMH, GISWNSGSIGTADSVK, VGRGGGYFDY: 440 µM (1 of 3 replicates)
* GFTFDDYAMH, GISWMSGSIGPADSVK, RGRGGGYFDY: no signal (0 of 3 replicates)
* GFTFDDYAMH, GISWNSGSIGDADSVK, VGRGGPYFKY: no signal (0 of 3 replicates)
* GFTFDDYAMH, GISWNSGSIGWADSWK, AGRGGGYFDY: no signal (0 of 3 replicates)
* GFTFDDYAMH, GISWWSGSIGGADSVL, VGRGGGYFDY: no signal (0 of 3 replicates)
* GFTFDDYAMH, GISWNPGSIGHADSVK, VGRGGGYFDL: no signal (0 of 3 replicates)
* GFTFDDYKMH, GISWNSGSIGIAKSVK, VGRGGGYFDY: no signal (0 of 3 replicates)
* GPTFDDYAMH, GISWNSGSIGVADSVK, VGRGGWYFDY: no signal (0 of 3 replicates)
* GFTFDDYAMH, GISWNSGSIGNADQVK, RGRGGGYFDY: no signal (0 of 3 replicates)
* GFTFDRYAMH, GISKNSGSIGFADSVK, VGRGGGYFDY: no signal (0 of 3 replicates)
* GFTFDDYWMH, GISWNSGSIKLADSVK, VGRGGGYFDY: no signal (0 of 3 replicates)
* GFTFDDYAMH, GISWNSGSIGHADSVK, VGRGGGYFDY: no signal (0 of 3 replicates)
* GFTFDDYAMH, GISWNSGSIGNADDVK, YGRGGGYFDY: no signal (0 of 3 replicates)
* GFTDDDYAMH, GISWNSGSIGWADSVK, VGRGGGYSDY: no signal (0 of 3 replicates)
* GFTFDDYQMH, GISWNSGSIGKADSVK, VGRGWGYFDY: no signal (0 of 3 replicates)
* GFTFCDYAMH, GISWNSGSIGGADSVK, VGDGGGYFDY: no signal (0 of 3 replicates)

Background: pairings of library AAYL51 with three empty control strains gave a value in 21% of cases (median 34 µM, 5th percentile 1.8 µM). Values in that range, when seen in few replicates, are hard to tell from nonspecific mating.
Parent in this assay: reference entry 72 nM, copy in this library 7.5 nM.